In US20190070251A1:

Target: GPR54 G-Protein coupled receptor (cloned human GPR54) (human) (UniProt Q969F8)
Assay: cell-based or functional assay

EC50 (nM) of agonist activation at GPR54; time of release 0 h [nM]	EC50 (nM) of agonist activation at GPR54; time of release 24 h [nM]	EC50 (nM) of agonist activation at GPR54; time of release 48 h [nM]	EC50 (nM) of agonist activation at GPR54; time of release 96 h [nM]	Binder
280	–	–	–	YNWNSFGLRF (C-terminal amide; one mPEG-SBC-30K attached through a releasable carbamate linkage (site not stated)) [mono-[mPEG-SBC-30K]-[Kisspeptin-10]]
1700	120	74	47	YNWNSFGLRF (C-terminal amide; one branched mPEG2-CAC-FMOC-40K attached through a releasable carbamate linkage (site not stated)) [mono-[mPEG2-CAC-FMOC-40K]-[Kisspeptin-10]]
